In patent publication US5434182A (priority 1993, dated 1995):

Test system: Herpes Simplex Virus-1
Test: microbe, parasite or virus in culture
Conditions: Human alphaherpesvirus 1, read-out: Reduction in Herpes Simplex Virus-1 Titer

## CCCCCCCCCC(=O)OCC(O)CO (racemic) [Monocaprin (10:0), 1-Monodecanoyl-rac-glycerol]
  log reduction at 15000 µM: ≥ 4
